# Apparent affinities of Ab-91 variants for a coronavirus HR2 peptide

Target: peptide PDVDLGDISGINAS, taken from heptad repeat 2 (HR2) of SARS-CoV-2 spike.

Each scFv is VL, a 15-residue (Gly4Ser)3 linker, VH, as in the parent Ab-91, and differs from it in the CDRs of the heavy chain only.
VL: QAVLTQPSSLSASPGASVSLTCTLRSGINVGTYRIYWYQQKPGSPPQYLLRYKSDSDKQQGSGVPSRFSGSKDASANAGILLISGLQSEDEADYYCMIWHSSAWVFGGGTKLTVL
VH: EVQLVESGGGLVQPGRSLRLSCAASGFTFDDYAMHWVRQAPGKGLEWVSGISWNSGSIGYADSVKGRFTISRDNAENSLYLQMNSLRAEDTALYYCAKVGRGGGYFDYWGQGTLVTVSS

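Variants in AAYL51 differ from the parent at up to three CDR positions; double and triple changes were sampled at random. AlphaSeq pools MATa yeast showing the antibodies with MATalpha yeast showing the peptide. After mating in shaken culture at 30 °C for 16 h, diploids were selected and their barcode pairs sequenced. A regression on co-assayed BCL2-family reference pairs converts the normalised counts of each replicate to an apparent Kd. Mating was done three times.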

Changes read parent residue, position, new residue, counted from the first residue of the VH shown. Values are log10 of the apparent Kd in nM; lower means stronger binding. A mean of the replicates is given; it leaves out those without a signal. "ND" means that the variant was in the library but no mating with the target was seen in that replicate; the authors take this as a sign of poor binding, and no number exists.

| changes | replicates, log10 nM | log10 Kd (nM), mean | control signals |
|---|---|---|---|
| I51H+S52F+I58C | 5.91 4.25 ND | 5.08 | 3 of 9 (4.06) |
| N54C+K65L+F106V | 4.80 4.02 4.53 | 4.45 | 3 of 9 (4.79) |
| G50D+G100F+Y105G | ND ND ND | ND | 3 of 9 (4.01) |
| G56V+A61Y+F106S | 5.32 3.95 4.84 | 4.70 | 7 of 9 (4.79) |
| R101Y+G104T+F106T | ND ND ND | ND | 0 of 9 |
| G26P+V99Q+R101N | 3.19 ND 3.72 | 3.45 | 4 of 9 (4.25) |
| T28A+N54L+G102K | ND 3.43 ND | 3.43 | 3 of 9 (4.46) |
| S63F+V64G+Y105K | ND ND 3.62 | 3.62 | 2 of 9 (3.04) |
| S57R+D107Y+Y108K | 3.60 ND ND | 3.60 | 1 of 9 (4.27) |
| F27L+H35G+G104Y | ND ND ND | ND | 2 of 9 (4.84) |
| D30M+R101N+G103I | 2.02 2.05 1.92 | 2.00 | 2 of 9 (4.65) |
| A33P+K65Q+G102Y | 2.99 2.79 2.47 | 2.75 | 3 of 9 (3.70) |
| S57L+S63Q+G102F | 4.68 ND ND | 4.68 | 2 of 9 (4.78) |
| F29H+S52A+S63L | 1.42 ND ND | 1.42 | 0 of 9 |
| G26D+R101E | 5.05 ND ND | 5.05 | 4 of 9 (4.73) |
| T28W+R101E | 3.26 5.25 ND | 4.25 | 3 of 9 (3.89) |
| Y32Q+S55L+R101W | ND ND 5.30 | 5.30 | 3 of 9 (4.84) |
| I51E+K65T+D107S | 3.62 ND ND | 3.62 | 2 of 9 (4.41) |
| W53F+S57K+Y105W | ND ND ND | ND | 1 of 9 (4.60) |
| F27S+F29K+Y32L | ND ND ND | ND | 0 of 9 |
| S63V+K65I | 4.26 ND ND | 4.26 | 0 of 9 |
| G59V+V64R | ND ND ND | ND | 0 of 9 |
| W53V+S63V | 2.97 2.80 2.75 | 2.84 | 4 of 9 (5.15) |
| Y32H+W53Y+Y60C | ND ND ND | ND | 0 of 9 |
| N54P+Y108A | ND ND ND | ND | 0 of 9 |
| D31Q+A33T+S52P | ND ND ND | ND | 0 of 9 |
| N54P+S63Y+R101H | ND ND ND | ND | 0 of 9 |
| G26A+N54H+D107C | ND 4.15 ND | 4.15 | 0 of 9 |
| G50Q+A61Q+G103N | ND 4.17 ND | 4.17 | 1 of 9 (3.24) |
| G26E+D62T+K65M | ND ND 4.67 | 4.67 | 0 of 9 |
| T28D+A61Y+R101I | 3.71 ND ND | 3.71 | 2 of 9 (4.38) |
| F29T+R101W+G103L | ND ND ND | ND | 0 of 9 |
| Y32V+G56F+K65W | 4.79 4.69 4.12 | 4.53 | 4 of 9 (4.01) |
| G59V+G102T+F106D | 5.89 5.44 4.91 | 5.41 | 5 of 9 (4.80) |
| D31I+G100T+R101A | 3.88 ND 4.25 | 4.07 | 1 of 9 (3.54) |
| S52V+G59Y+Y60H | 3.08 ND ND | 3.08 | 0 of 9 |
| I58A+K65N+Y108V | 1.23 1.27 0.70 | 1.07 | 1 of 9 (3.71) |
| V99T+R101F+F106S | 2.50 ND ND | 2.50 | 0 of 9 |
| F29I+S52V+N54C | 5.03 ND ND | 5.03 | 3 of 9 (5.14) |
| D30L+G59S+R101G | ND ND ND | ND | 1 of 9 (4.18) |
| S55N+D107P | 3.73 5.73 ND | 4.73 | 3 of 9 (4.23) |
| W53G+N54A+G100P | ND ND ND | ND | 0 of 9 |

For reference, the parent read 1.86 as the reference entry and 0.88 as a member of this library. Background: pairings of library AAYL51 with three empty control strains gave a value in 21% of cases (median 4.54, 5th percentile 3.26). Values in that range, when seen in few replicates, are hard to tell from nonspecific mating. For each scFv, signals with the empty controls are counted beside the result, with their mean in brackets.

Values reported by Engelhart et al. 2022, doi:10.1038/s41597-022-01779-4 (FLAb copy).